Measurements as given in publication PMC6172466 (2018).

Legend:
[1] = target: T1, N-terminally TAMRA-labeled monoubiquitin (UniProt P0CG48 1-76, TAMRA on the N-terminus); assay: FP; slow phase
[2] = target: T1, N-terminally TAMRA-labeled monoubiquitin; assay: FP; fast phase

B1: USP4 (8-925) wild-type (enzyme)
chain: RERPDAETQKSELGPLMRTTLQRGAQWYLIDSRWFKQWKKYVGFDSWDMYNVGEHNLFPGPIDNSGLFSDPESQTLKEHLIDELDYVLVPTEAWNKLLNWYGCVEGQQPIVRKVVEHGLFVKHCKVEVYLLELKLCENSDPTNVLSCHFSKADTIATIEKEMRKLFNIPAERETRLWNKYMSNTYEQLSKLDNTVQDAGLYQGQVLVIEPQNEDGTWPRQTLQSKSSTAPSRNFTTSPKSSASPYSSVSASLIANGDSTSTCGMHSSGVSRGGSGFSASYNCQEPPSSHIQPGLCGLGNLGNTCFMNSALQCLSNTAPLTDYFLKDEYEAEINRDNPLGMKGEIAEAYAELIKQMWSGRDAHVAPRMFKTQVGRFAPQFSGYQQQDSQELLAFLLDGLHEDLNRVKKKPYLELKDANGRPDAVVAKEAWENHRLRNDSVIVDTFHGLFKSTLVCPECAKVSVTFDPFCYLTLPLPLKKDRVMEVFLVPADPHCRPTQYRVTVPLMGAVSDLCEALSRLSGIAAENMVVADVYNHRFHKIFQMDEGLNHIMPRDDIFVYEVCSTSVDGSECVTLPVYFRERKSRPSSTSSASALYGQPLLLSVPKHKLTLESLYQAVCDRISRYVKQPLPDEFGSSPLEPGACNGSRNSCEGEDEEEMEHQEEGKEQLSETEGSGEDEPGNDPSETTQKKIKGQPCPKRLFTFSLVNSYGTADINSLAADGKLLKLNSRSTLAMDWDSETRRLYYDEQESEAYEKHVSMLQPQKKKKTTVALRDCIELFTTMETLGEHDPWYCPNCKKHQQATKKFDLWSLPKILVVHLKRFSYNRYWRDKLDTVVEFPIRGLNMSEFVCNLSARPYVYDLIAVSNHYGAMGVGHYTAYAKNKLNGKWYYFDDSNVSLASEDQIVTKAAYVLFYQRRDD
koff [1]: 0.045 s⁻¹
koff [2]: 0.49 s⁻¹
